Measured values taken from article PMC8626637, “Successful Prediction of Human Fetal Exposure to P-Glycoprotein Substrate Drugs Using the Proteomics-Informed Relative Expression Factor Approach and PBPK Modeling and Simulation” (Drug Metabolism and Disposition, 2021).

Tested on: human P-gp
Assay: in vitro
Conditions: MDCK-MDR1, pH 7.4

efflux ratio	SMILES
1.03 ± 0.22	C[C@@H]1C[C@H]2[C@@H]3CCC4=CC(=O)C=C[C@]4(C)[C@@]3(F)[C@@H](O)C[C@]2(C)[C@@]1(O)C(=O)CO [DEX, dexamethasone]
0.99 ± 0.07	C[C@H]1C[C@H]2[C@@H]3CCC4=CC(=O)C=C[C@]4(C)[C@@]3(F)[C@@H](O)C[C@]2(C)[C@@]1(O)C(=O)CO [BET, betamethasone]
